This passage reports IC50 results from patent US11530197B2, “Analogs for the treatment of disease” (Insilico Medicine IP Limited, priority 2021, dated 2022).

Molecules are shown by their SMILES.

This assay concerns Collagen I (COL1A1) in LX-2 cells. The assay is described as follows: Collagen and Alpha-SMA in LX-2 (Western blot after TGF-β stimulation).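 Also: cells serum-starved in 0.4% FBS before treatment, lysates analysed by Western blot, DMSO-only wells as blank and TGF-β alone as maximal induction control, three independent experiments.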 To be noted: Homo sapiens, 4 ng/ml TGF-β for 48 hours, Collagen I normalized to GAPDH. The format is cell-based. For orientation: In western blotting, separated proteins are transferred to a membrane and probed.

The IC50 is the concentration needed to halve the response being measured. `CC(C)n1cnc(-c2ccc(F)cc2)c1-c1nc(C(=O)Nc2ccc(N3CCN(C)CC3)cc2)c[nH]1` [Compound 112, 5′-(4-fluorophenyl)-3′-isopropyl-N-(4-(4-methylpiperazin-1-yl)phenyl)-1H,3′H-[2,4′-biimidazole]-4-carboxamide] returned an IC50 of under 100 pM.
